Sequences of proteins named here, by UniProt entry; tags and fusion partners are left off.
UniProt P08172, whole entry: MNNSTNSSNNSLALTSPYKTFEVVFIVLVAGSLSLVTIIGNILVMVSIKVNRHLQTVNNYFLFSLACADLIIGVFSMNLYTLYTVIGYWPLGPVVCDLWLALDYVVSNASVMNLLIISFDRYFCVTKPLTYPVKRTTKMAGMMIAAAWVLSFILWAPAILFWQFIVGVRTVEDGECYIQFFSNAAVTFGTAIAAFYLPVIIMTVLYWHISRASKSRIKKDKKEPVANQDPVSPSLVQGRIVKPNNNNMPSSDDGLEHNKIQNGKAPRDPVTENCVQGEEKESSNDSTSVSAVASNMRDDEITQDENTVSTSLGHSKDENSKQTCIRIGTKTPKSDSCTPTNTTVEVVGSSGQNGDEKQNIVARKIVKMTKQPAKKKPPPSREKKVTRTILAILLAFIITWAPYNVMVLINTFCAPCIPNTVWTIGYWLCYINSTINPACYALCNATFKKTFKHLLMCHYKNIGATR
UniProt P08483, whole entry: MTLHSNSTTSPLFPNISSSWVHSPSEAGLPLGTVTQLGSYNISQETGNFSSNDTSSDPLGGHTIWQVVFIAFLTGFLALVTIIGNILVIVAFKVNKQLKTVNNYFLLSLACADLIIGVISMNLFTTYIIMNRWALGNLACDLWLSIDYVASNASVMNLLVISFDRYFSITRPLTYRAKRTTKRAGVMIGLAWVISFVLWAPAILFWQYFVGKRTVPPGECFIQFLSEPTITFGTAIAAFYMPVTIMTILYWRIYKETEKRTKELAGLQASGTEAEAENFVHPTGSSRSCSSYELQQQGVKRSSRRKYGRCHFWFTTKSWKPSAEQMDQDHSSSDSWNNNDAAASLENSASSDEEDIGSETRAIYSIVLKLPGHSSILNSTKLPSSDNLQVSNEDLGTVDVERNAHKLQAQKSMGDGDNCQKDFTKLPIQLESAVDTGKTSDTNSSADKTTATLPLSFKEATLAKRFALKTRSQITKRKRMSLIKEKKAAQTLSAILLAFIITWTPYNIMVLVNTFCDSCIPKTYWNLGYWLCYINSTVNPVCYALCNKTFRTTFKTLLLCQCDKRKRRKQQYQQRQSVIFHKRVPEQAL

In ChEMBL document CHEMBL1127431, “Cholinergic agents structurally related to furtrethonium. 2. Synthesis and antimuscarinic activity of a series of N-[5-[(1'-substituted-acetoxy) methyl]-2-furfuryl]dialkylamines” (J Med Chem, 1994):

Experiments:
[1] = molecular target: Muscarinic acetylcholine receptor M2 (Homo sapiens) (UniProt P08172); experiment: In vitro antimuscarinic activity against the M2 muscarinic receptor subtype in guinea pig atria; settings: Cavia porcellus; target entry is the homologue from another species
How it was run: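 Guinea pig atria (both), fasted overnight, resting tension 1 g, force recorded; 30–45 min equilibration. Cumulative carbachol curves in 0.25 log-unit increments, repeated until two matched, then final curve after ≥30 min with test compound. E50 from four-parameter logistic fit; pKb = log(DR−1) − log[B], mean ± SE.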

[2] = molecular target: Muscarinic acetylcholine receptor M3 (Rattus norvegicus) (UniProt P08483); experiment: In vitro antimuscarinic activity against the M3 muscarinic receptor subtype in rat bladder
How it was run: (§1)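 Rat urinary detrusor strips (extratrigonal, 1 cm × 2 mm), fasted overnight, isotonic recording at 1 g resting tension; 30–45 min equilibration. Cumulative furtrethonium curves in 0.5 log-unit increments, repeated until two matched, then final curve after ≥30 min with test compound. E50 by four-parameter logistic fit; pKb = log(DR−1) − log[B], mean ± SE.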

[3] = molecular target: Muscarinic acetylcholine receptor M3 (Rattus norvegicus) (UniProt P08483); experiment: In vitro antimuscarinic activity against the M3 muscarinic receptor subtype in rat ileum; type: tissue-based
How it was run: as §1, with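 “Rat longitudinal ileum segments (~2 cm),” for “Rat urinary detrusor strips (extratrigonal, 1 cm × 2 mm),”, “at 0.5” for “at 1”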

Row | SMILES | pKb [1] | pKb [2] | pKb [3]
1 | CN(Cc1ccc(COC(=O)C(O)(c2ccccc2)C2CCCCC2)o1)C1CCCCC1 (stereo not given) | 6 | 7 | 7.7
2 | C=CCN(C)Cc1ccc(COC(=O)C(O)(c2ccccc2)C2CCCCC2)o1 (stereo not given) | 6.8 | 7.8 | 7.5
3 | O=C(OCc1ccc(CN2CCNCC2)o1)C(O)(c1ccccc1)C1CCCCC1 (stereo not given) | 5 | 5.5 | 5.5
4 | CN(C)Cc1ccc(COC(=O)C(O)(c2ccccc2)c2ccccc2)o1 | 6.7 | 6.7 | 6.5
5 | O=C(OCc1ccc(CN2CCC(O)CC2)o1)C(O)(c1ccccc1)C1CCCCC1 (stereo not given) | 6.3 | 6.8 | 7
6 | CN(C)Cc1ccc(COC(=O)C(O)(c2ccccc2)C2CCCCC2)o1 (stereo not given) | 7.2 | 8.2 | 8.1
7 | CC1CNCCN1Cc1ccc(COC(=O)C(O)(c2ccccc2)C2CCCCC2)o1 (stereo not given) | < 5 | 5 | 5.8
8 | CN(C)Cc1ccc(COC(=O)C(O)(c2ccccc2)C2CCCC2)o1 (stereo not given) | 7.7 | 7.8 | 7.8
9 | CC(C)N(C)Cc1ccc(COC(=O)C(O)(c2ccccc2)C2CCCC2)o1 (stereo not given) | 7.2 | 7.7 | 7.4
10 | CC(C)N(C)Cc1ccc(COC(=O)C(O)(c2ccccc2)C2CCCCC2)o1 (stereo not given) | 6.4 | 7.5 | 7.5
